These results are taken from US7122668B2, “Platinum complexes and their use in therapy” (priority 2002, dated 2006).

The nature of the data set: In vivo toxicity. The settings on record: 20 mg/kg. On the set-up: species or system BALB/C mice.

“Trans-[PtCl2(4-picoline)(piperazine)].HCl [Complex 13]”: the “toxicity (animal weight and survival)” value was “non-toxic”.
